Results reported in patent US6413935.

Target: HLA-DQ3.1 (DQA1*0301/DQB1*0310), purified from PF cells (human) (UniProt P01909)
Test: 125I-peptide inhibition, purified class II

## Ova 323-336 (peptide)
  IC50: 577 nM
